# Results from patent publication US20200397807A1, “NICOTINYL RIBOSIDE COMPOUNDS AND THEIR USES” (MitoPower, LLC, priority 2019, published 2020).
# Several values for one entry are separate records, joined by “and”; a condition that tells them apart may be missing. Equal entries are not always repeated.
# Assays:
# Jurkat cells [1] = test: Total cellular NAD^+ level after MNNG-induced depletion (NAD/NADH Glo assay); format: cell-based; conditions: at 4 hr
# HepG2 cells [2] = test: ATP assay (CellTiter-Glo); conditions: effect of MNNG treatment, FIG. 25
# HepG2 cells [3] = test: NAD^+ assay (total cellular NAD^+ by HPLC/LCMS), with or without MNNG; conditions: effect of MNNG treatment, FIG. 23
# Jurkat cells [4] = test: as above; conditions: Jurkat treated with MNNG 30 min, then compounds 4 hr; n=3; FIG. 19A
# HepG2 cells [5] = test: NAD^+/NADH ratio (NAD^+ by HPLC/LCMS, NADH production by CellTiter-Blue); conditions: effect of MNNG treatment, FIG. 24
# Jurkat cells [6] = test: as above; conditions: effect of MNNG treatment, FIG. 20
# Jurkat cells [7] = test: MNNG-induced cytotoxicity / cytoprotection (CellTiter-Blue Cell Viability Assay); conditions: at 4 hr
compound,measurement,setting,value
CN(N=O)C(=N)N[N+](=O)[O-],% depletion of NAD^+ level,Jurkat cells [1]; 75 μM MNNG 30 min,92.1%
same,% depletion of NAD^+ level,Jurkat cells [1]; 100 μM MNNG 30 min,76.9% and 94%
same,ATP level,HepG2 cells [2],significantly reduced
same,NAD^+ level,HepG2 cells [3],markedly reduced
same,NAD^+ level,Jurkat cells [4],markedly reduced
same,NAD^+/NADH ratio,HepG2 cells [5],markedly reduced
same,NAD^+/NADH ratio,Jurkat cells [6],markedly reduced
same,% cytotoxicity,Jurkat cells [7]; 75 μM MNNG 30 min,87%
same,% cytotoxicity,Jurkat cells [7]; 150 μM MNNG 30 min,63.2%
same,% cytotoxicity,Jurkat cells [7]; 200 μM MNNG 30 min,78%
